Experimental data taken from patent US20240174649A1, “CULLIN-RING E3 UBIQUITIN LIGASE 4 INHIBITOR COMPOUNDS AND METHODS OF THEIR USE” (ICAHN SCHOOL OF MEDICINE AT MOUNT SINAI, priority 2021, published 2024).

Amino acid sequences for entries named in this document (tags omitted).
UniProt Q13616, whole entry: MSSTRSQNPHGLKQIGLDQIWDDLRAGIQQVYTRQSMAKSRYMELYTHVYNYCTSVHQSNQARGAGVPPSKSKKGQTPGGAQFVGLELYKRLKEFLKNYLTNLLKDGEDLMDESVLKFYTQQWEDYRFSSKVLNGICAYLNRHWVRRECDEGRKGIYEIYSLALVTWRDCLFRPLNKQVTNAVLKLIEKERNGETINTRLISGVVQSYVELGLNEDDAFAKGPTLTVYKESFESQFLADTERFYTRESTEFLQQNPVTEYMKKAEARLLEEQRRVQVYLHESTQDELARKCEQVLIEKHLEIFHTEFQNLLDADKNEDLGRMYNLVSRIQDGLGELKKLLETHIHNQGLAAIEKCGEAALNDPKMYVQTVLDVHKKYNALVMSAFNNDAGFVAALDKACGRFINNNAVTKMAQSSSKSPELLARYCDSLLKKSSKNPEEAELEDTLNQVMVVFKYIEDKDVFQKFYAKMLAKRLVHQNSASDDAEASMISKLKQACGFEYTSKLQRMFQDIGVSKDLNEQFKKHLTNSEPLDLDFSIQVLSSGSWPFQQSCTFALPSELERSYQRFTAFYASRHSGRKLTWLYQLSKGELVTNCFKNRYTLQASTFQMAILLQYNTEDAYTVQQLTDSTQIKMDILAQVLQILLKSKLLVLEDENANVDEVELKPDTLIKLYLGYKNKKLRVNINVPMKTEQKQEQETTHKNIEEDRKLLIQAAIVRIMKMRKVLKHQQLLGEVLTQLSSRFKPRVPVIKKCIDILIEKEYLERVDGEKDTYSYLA
UniProt Q13619, whole entry: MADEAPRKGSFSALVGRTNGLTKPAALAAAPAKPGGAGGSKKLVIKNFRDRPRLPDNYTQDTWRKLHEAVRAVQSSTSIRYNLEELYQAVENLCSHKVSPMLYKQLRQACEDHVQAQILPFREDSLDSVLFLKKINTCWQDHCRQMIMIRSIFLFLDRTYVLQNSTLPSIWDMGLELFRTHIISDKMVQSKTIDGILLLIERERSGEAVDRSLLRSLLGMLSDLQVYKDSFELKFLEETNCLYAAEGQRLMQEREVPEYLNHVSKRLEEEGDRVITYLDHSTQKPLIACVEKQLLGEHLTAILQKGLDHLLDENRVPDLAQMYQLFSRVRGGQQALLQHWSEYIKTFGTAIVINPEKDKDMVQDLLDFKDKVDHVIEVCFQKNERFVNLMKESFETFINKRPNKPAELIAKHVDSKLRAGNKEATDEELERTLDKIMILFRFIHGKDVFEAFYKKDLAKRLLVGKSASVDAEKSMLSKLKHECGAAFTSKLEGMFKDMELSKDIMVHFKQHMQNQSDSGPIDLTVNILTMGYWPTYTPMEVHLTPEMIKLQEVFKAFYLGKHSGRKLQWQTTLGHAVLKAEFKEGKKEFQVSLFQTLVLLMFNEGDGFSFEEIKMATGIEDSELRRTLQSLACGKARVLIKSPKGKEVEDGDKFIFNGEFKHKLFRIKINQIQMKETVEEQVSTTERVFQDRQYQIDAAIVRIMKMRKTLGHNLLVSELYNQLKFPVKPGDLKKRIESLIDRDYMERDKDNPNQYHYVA
UniProt P62877, whole entry partner: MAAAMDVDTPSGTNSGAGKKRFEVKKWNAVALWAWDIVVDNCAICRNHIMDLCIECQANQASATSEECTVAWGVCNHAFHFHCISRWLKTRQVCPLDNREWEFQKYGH

Columns and labels:
[1] = test system: cancer cells; assay: Apoptosis, Annexin V flow cytometry; type: cell-based; details: Table 1; tested form: disodium salt
[2] = target: E3 (CUL1) (Homo sapiens (Human), UniProt Q13616); assay: E3 (CUL1) inhibition (Table 1); type: biochemical; details: read-out: E3 (CUL1) Inhibition EC50; tested form: disodium salt
[3] = target: E3 (CUL4) (Homo sapiens (Human), UniProt Q13619); assay: E3 (CUL4) inhibition (Table 1); type: biochemical; details: tested form: disodium salt

O=c1c(-c2cnn(-c3ccccc3)c2)c(C(F)(F)F)oc2c(O)c(O)ccc12 [#33-11, 7,8-dihydroxy-3-(1-phenyl-1H-pyrazol-4-yl)-2-(trifluoromethyl)-4H-chromen-4-one]
Apoptosis EC50 [1]: Inactive
EC50 [2]: 21 µM
E3 (CUL4) Inhibition EC50 [3]: Inactive
